Reference: patent US20110118274A1, “PROTEASOME INHIBITORS AND THEIR USE IN TREATING PATHOGEN INFECTION AND CANCER” (CORNELL RESEARCH FOUNDATION, INC., priority 2007, published 2011)

Key:
[1] = target: human 20S-β5 (Hu20S PA28) (Homo sapiens, UniProt P28074); assay: Kinetics of inhibition of human 20S proteasome β5 site in presence of PA28; settings: for kobs/[I] H20S-β5: corrected for substrate competition; for reversibility of inactivation of human proteasome β5 subunit: plots of kobs vs [I] not passing through origin
Source text: The “open gate” mutant of recombinant Mtb proteasome (PrcAB-OG) was over-expressed in E. coli and purified as reported (Lin et al., “Mycobacterium tuberculosis prcBA Genes Encode a Gated Proteasome With Broad Oligopeptide Specificity,” Mol. Microbiol. 59:1405-1416 (2006), which is hereby incorporated by reference in its entirety). Human red blood cell 20S and PA28 were purchased from Boston Biochem (Cambridge, Mass.). GL1, GL2, GL3, GL4 were purchased from TimTec LLC (DE, USA) and GL5, GL6, GL7 from ChemDiv, Inc. (CA, USA). Bortezomib was purchased from LC Laboratories (MA, USA). Substrates Ac-RFW-AMC, Ac-YQW-AMC were synthesized by AnaSpec (CA, USA) and used for detailed kinetic analyses. Different substrates were chosen according to the nature of the experiments.
Kinetic measurements were made on a Hitachi F-2500 fluorescence spectrophotometer with 0.238 nM PrcAB-OG in 20 mM HEPES, 0.5 mM EDTA, pH 7.5, 0.1 mg/mL BSA and 25 μM Ac-RFWAMC for Mtb PrcAB-OG or 25 μM Suc-LLVY-AMC for human 20S at 37° C. After steady state conditions were achieved, inhibitors were added and substrate cleavage was monitored (λex=360 nm, λex=460 nm) at 5-second intervals for 60 minutes or until no activity remained. The data were fitted to equation (Corbett et al., “The Growing Burden of Tuberculosis: Global Trends and Interactions with the HIV Epidemic,” Arch. Intern. Med. 163:1009-1021 (2003), which is hereby incorporated by reference in its entirety) to determine kobs ? using Prism (GraphPad Software, Inc. San Diego, Calif.).
As noted, the cytotoxicity of proteasome inhibitors is correlated with their inhibition of the proteasome's chymotryptic-like activity (Adams et al., “Proteasome Inhibitors: A Novel Class of Potent and Effective Antitumor Agents,” Cancer Res. 59:2615-2622 (1999), which is hereby incorporated by reference in its entirety). Accordingly, the next focus was placed on the chymotryptic-like site of the β5 subunit of proteasomes isolated from human erythrocytes in the presence of the human proteasome activator PA28 and obtained the kobs ? /[1] values for GL5 (tested over the range 50-100 μM, FIG. 2C), GL1 (2.5-20 μM), and GL3 (2.5-10 μM). The plots of kobs ? vs [I] for all three compounds yielded straight lines, indicating a simple one-step inactivation mechanism (Copeland, R.A., “Enzymes: A Practical Introduction to Structure, Mechanism, and Data Analysis,” pp. 305-349 (2000), which is hereby incorporated by reference in its entirety).

[2] = tested on: human monocyte-derived macrophages; assay: Cytotoxicity, human monocyte-derived macrophages; settings: 100 μM, 7 days
Method: Given that proteasome-inhibiting oxathiazol-2ones killed mycobacteria, their impact on the survival of mammalian cells was tested. […] In contrast, less than 10% of Vero cells remained viable after 4-day exposure to 25 nM bortezomib. Finally, because most Mtb in nature resides in human macrophages, we exposed human monocyte-derived macrophages (mostly multinucleated giant cells) to 100 μM GL3, GL5 or GL6 for 7 days. There was no morphologic sign of cytotoxicity. Again, in contrast, some of the human macrophages exposed to as little as 0.5 μM bortezomib for 7 days rounded up or appeared to disintegrate.

Row | Compound | kobs/[I] H20S-β5 [1] | reversibility of inactivation of human proteasome β5 subunit [1] | morphologic sign of cytotoxicity [2]
1 | O=c1oc(-c2cc3c(s2)CCCC3)ns1 | 128 ± 12.3 M⁻¹ s⁻¹ | reversible | no morphologic sign of cytotoxicity
2 | O=c1oc(-c2cc3ccccc3s2)ns1 | 194 ± 5.5 M⁻¹ s⁻¹ | reversible | 
